Results from patent publication US20170058314A1, “NOVEL METHODOLOGY FOR IDENTIFYING ANTI-PERSISTER ACTIVITY AND ANTIMICROBIAL SUSCEPTIBILITY FOR BORRELIA BURGDORFERI AND OTHER BACTERIA” (priority 2014, published 2017).

Legend:
[1] = system: stationary phase B. burgdorferi persisters (strain B31); experiment: SYBR Green I/PI viability assay (plate reader), FDA-approved drug library screen; settings: 50 μM, 7-day old stationary phase cells treated for 7 days
[2] = system: stationary phase B. burgdorferi persisters (strain B31); experiment: epifluorescence microscope counting after SYBR Green I/PI staining, FDA drug screen; settings: 50 μM, 7-day old stationary phase cells treated for 7 days

Collistin
Residual viable cells (regression equation, SYBR Green I/PI assay) [1]: 54% | Residual viable cells (epifluorescence microscope counting) [2]: 50%
